Measurements: PubChem BioAssay (EPA / NIEHS)
Several values for one entry are separate records, joined by “and”; a condition that tells them apart may be missing. Equal values may be shown once. Only a part is listed here, and it is no random draw. Activity calls are given as the source filed them. Rule for the calls: active = hit-call score of the fitted dose curve at least 0.9, where 1 is the maximum; inactive = score below 0.9.

Legend:
[1] = read-out: catalase (CAT), CAT (gene 847); assay: LTEA_HepaRG_CAT: Life Technologies and Expression Analysis (LTEA) Assay for catalase (CAT) using HepaRG (AID 2283452); conditions: actives raise or lower the signal; mRNA level, 48 h;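 note: TaqMan qRT-PCR signal normalized to ACTB GAPDH and POLR2A housekeeping genes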
Procedure, shortened: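 HepaRG cells in serum-free induction medium, 0.5% DMSO vehicle, exposed 48 h in duplicate over 8 half-log concentrations from 100 uM. CAT mRNA measured by qRT-PCR, normalized to ACTB, GAPDH, POLR2A; bidirectional fit versus DMSO.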

[2] = read-out: Apolipoprotein A-V (APOA5) gene, APOA5 (gene 116519); assay: LTEA_HepaRG_APOA5: Life Technologies and Expression Analysis (LTEA) Assay for Apolipoprotein A-V (APOA5) gene using HepaRG (AID 2283474); conditions: actives raise or lower the signal; mRNA level, 48 h
Procedure, shortened: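 HepaRG, 48 h chemical exposure in serum-free induction medium, 8-pt half-log series (top 100 uM), 0.5% DMSO vehicle, duplicates. Readout: APOA5 mRNA by qRT-PCR, housekeeping-normalized; bidirectional fit vs DMSO baseline.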

[3] = read-out: Glutathione S-Transferase (GSTA2), GSTA2 (gene 2939); assay: LTEA_HepaRG_GSTA2: Life Technologies and Expression Analysis (LTEA) Assay for Glutathione S-Transferase (GSTA2) using HepaRG (AID 2283497); conditions: actives raise or lower the signal; mRNA level, 48 h
Procedure, shortened: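 Differentiated human HepaRG cells were exposed in duplicate for 48 h in serum-free induction medium, 8 points from 100 uM top in half-log steps, 0.5% DMSO. GSTA2 mRNA was measured by TaqMan qRT-PCR, normalized to ACTB, GAPDH and POLR2A; bidirectional fit versus DMSO.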

[4] = read-out: 3-Hydroxy-3-Methylglutaryl-CoA Synthase 2 (HMGCS2), HMGCS2 (gene 3158); assay: LTEA_HepaRG_HMGCS2: Life Technologies and Expression Analysis (LTEA) Assay for 3-Hydroxy-3-Methylglutaryl-CoA Synthase 2 (HMGCS2) using HepaRG (AID 2283504); conditions: actives raise or lower the signal; mRNA level, 48 h
Procedure, shortened: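 qRT-PCR read-out of HMGCS2 transcript, normalised to three housekeeping genes, in HepaRG cells after 48 h chemical exposure. Eight-point curves from 100 uM, half-log dilutions, 0.5% DMSO vehicle; gain or loss fitted relative to DMSO baseline.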

[5] = read-out: Tumor necrosis factor receptor 1 (TNFRSF1A), TNFRSF1A (gene 7132); assay: LTEA_HepaRG_TNFRSF1A: Life Technologies and Expression Analysis (LTEA) Assay for Tumor necrosis factor receptor 1 (TNFRSF1A) using HepaRG (AID 2283535); conditions: actives raise or lower the signal; mRNA level, 48 h
Procedure, shortened: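 HepaRG, 48 h plating then 48 h chemical exposure, serum-free induction media; 8-pt CRC from 100 uM, half-log, 0.5% DMSO vehicle, duplicates. Readout: TaqMan qRT-PCR (Fluidigm), housekeeping-gene normalized; bidirectional fit vs DMSO.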

[6] = CCTE_Mundy_HCI_Cortical_Synap_Neur_Matur_NeuriteCount: CCTE's Synaptogenesis and Neurite Maturation Assay in rat cortical cells for Neurite Count, Mundy Lab (AID 2284222)
Procedure, shortened: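 Chemical exposure runs DIV 7–12 in rat cortical cultures, glia suppressed by AraC at DIV 5; measurement is at DIV 12. Imaging-derived neurite counts are fitted against DMSO baseline.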

Measured: AC50

CC(C)OP(=S)(OC(C)C)SCCNS(=O)(=O)c1ccccc1
active: [1] 74.5 µM | [2] 58.8 µM | [3] 77.7 µM | [4] 71.4 µM | [5] 78.7 µM | [6] 74.5 µM and 57.2 µM
